Results as given in patent US9200265B2, “Anti-cocaine compositions and treatment” (priority 2006, dated 2015).

Tested on: cocaine-induced lethality
Assay: Rodent model of acute cocaine toxicity (convulsions and lethality) in rats
Settings: 1 mg i.v. one minute before 180 mg/kg cocaine i.p.

B1: PMSF-treated enzyme: wild-type enzyme covalently modified within the active site by phenylmethyl sulphonate fluoride (PMSF) (protein, UniProt Q9L9D7 1-574, looked up)
Cocaine esterase: MVDGNYSVASNVMVPMRDGVRLAVDLYRPDADGPVPVLLVRNPYDKFDVFAWSTQSTNWLEFVRDGYAVVIQDTRGLFASEGEFVPHVDDEADAEDTLSWILEQAWCDGNVGMFGVSYLGVTQWQAAVSGVGGLKAIAPSMASADLYRAPWYGPGGALSVEALLGWSALIGTGLITSRSDARPEDAADFVQLAAILNDVAGAASVTPLAEQPLLGRLIPWVIDQVVDHPDNDESWQSISLFERLGGLATPALITAGWYDGFVGESLRTFVAVKDNADARLVVGPWSHSNLTGRNADRKFGIAATYPIQEATTMHKAFFDRHLRGETDALAGVPKVRLFVMGIDEWRDETDWPLPDTAYTPFYLGGSGAANTSTGGGTLSTSISGTESADTYLYDPADPVPSLGGTLLFHNGDNGPADQRPIHDRDDVLCYSTEVLTDPVEVTGTVSARLFVSSSAVDTDFTAKLVDVFPDGRAIALCDGIVRMRYRETLVNPTLIEAGEIYEVAIDMLATSNVFLPGHRIMVQVSSSNFPKYDRNSNTGGVIAREQLEEMCTAVNRIHRGPEHPSHIVLPIIKR
modifications: active site covalently modified by PMSF
**Q.** How did the “protective effect against cocaine (convulsions and lethality)” value turn out when B1 was run?
**A.** eliminated CocE's protective effect
